In patent publication US20240317712A1, “[…] DERIVATIVES AS INHIBITORS OF […]-PEPTIDE CYCLOTRANSFERASE AND […]-PEPTIDE CYCLOTRANSFERASE LIKE PROTEIN” (Boehringer Ingelheim International GmbH, priority 2023, published 2024):

Tested on: Caco-2 cells
Test: Assay C: Permeability in CACO-2 cells
Type: in vitro ADME
Conditions: pH 7.2

Row | Permeability A-B (Caco-2, apical to basolateral) | Papp A→B [×10⁻⁶ cm/s] | Compound
1 | 0.7 10^−6 cm/s | – | Cn1cnnc1C1CCN(S(=O)(=O)c2cccc(Nc3ccc(F)nc3)c2)CC1
2 | – | 3.5 | Cn1cnnc1C1CCN(S(=O)(=O)c2cccc(Nc3ccc(OCc4ccccc4)nc3)c2)CC1
